Data on four compounds can be found in ChEMBL document CHEMBL1132600, “Substrate specificity and stereoselectivity of rat brain microsomal anandamide amidohydrolase” (J Med Chem, 1999).

The chains behind the UniProt entries cited, without tags or fusion partners.
UniProt P97612, whole entry: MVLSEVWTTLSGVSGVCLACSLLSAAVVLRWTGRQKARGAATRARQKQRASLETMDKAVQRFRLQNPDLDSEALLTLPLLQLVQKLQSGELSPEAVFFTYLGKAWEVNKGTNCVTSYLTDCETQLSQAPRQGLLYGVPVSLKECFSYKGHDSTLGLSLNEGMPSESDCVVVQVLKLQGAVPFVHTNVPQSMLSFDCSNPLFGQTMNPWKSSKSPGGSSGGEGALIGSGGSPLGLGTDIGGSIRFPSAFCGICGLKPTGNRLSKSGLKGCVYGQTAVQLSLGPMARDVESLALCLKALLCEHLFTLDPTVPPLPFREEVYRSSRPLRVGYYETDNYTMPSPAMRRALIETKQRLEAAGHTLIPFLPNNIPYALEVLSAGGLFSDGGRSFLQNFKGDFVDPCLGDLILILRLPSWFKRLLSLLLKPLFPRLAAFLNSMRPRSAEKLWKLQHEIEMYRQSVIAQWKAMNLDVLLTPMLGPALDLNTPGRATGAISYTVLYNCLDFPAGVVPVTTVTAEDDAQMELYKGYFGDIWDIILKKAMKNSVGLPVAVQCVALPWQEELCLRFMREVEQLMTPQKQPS

Structures are written as SMILES.

For this assay, the target named is Fatty-acid amide hydrolase 1 (Rattus norvegicus) (UniProt P97612). As to the kind of experiment: Tested for hydrolysis by rat brain microsomal anandamide amidohydrolase (AAH). The method, boiled down: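 Substrate at 100 μM (final) with 150 μg rat brain microsomal protein in 50 mM Tris·HCl, 1 mM EDTA, 0.1% BSA, pH 7.4, 37 °C, 15 min with shaking. Stopped with acetonitrile. Products quantified by RP-HPLC: arachidonic acid at 204 nm, or ethanolamine-type amine by OPA precolumn derivatization at 230 nm. Substrate-free blank subtracted. Four experiments in duplicate.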
In turn, `CCCCC/C=C\C/C=C\C/C=C\C/C=C\CCCC(=O)N[C@@H](C)CO` showed a Relative rate of hydrolysis of 23%.
The same measure for `CCCCC/C=C\C/C=C\CCCCCCCC(=O)NCCO`: 75%; for `CCCCC/C=C\C/C=C\C/C=C\C/C=C\CCCC(=O)N(CCO)CCO`: 0%; for `CCCCC/C=C\C/C=C\C/C=C\C/C=C\CCCC(=O)N[C@H](C)CO`: 2.4%.
